According to patent US9273088B2, “Ginsenoside derivative compounds and the use thereof in protection against ischemia/reperfusion injury” (Macau University of Science and Technology, priority 2013, dated 2016):

System: H9c2 cells
Assay: Cytotoxicity study in normoxia condition, MTT cell viability assay
Assay type: cell-based, rat
Protocol: Embryonic rat heart derived cell line H9c2 (2-1), shorted in H9c2 cells, was purchased from ATCC (CRL-1446), which is a permanent cell line and derived from embryonic BDIX rat ventricular heart tissue. Dulbecco's Modified Eagle Medium, Fetal Bovine Serum, and Penicillin-Streptomycin-Glutamine, 2.5% Trypsin/EDTA solution, Phosphate-buffered saline from GIBCO® (Invitrogen™) were used.
H9c2 cells were cultured in DMEM medium supplemented with 10% fetal bovine serum, 1% glutamine, 50 U/ml penicillin and […] streptomycin. The culture atmosphere for H9c2 cells was 95% air with 5% carbon dioxide (CO2) at 37.0° C. The medium was replaced every 2-3 days. A stock of cells was grown in a 100 cm^2 culture dish and split before confluence at a subcultivation ratio of 1:4. Cells used for experiments were seeded at a density of 1.0×10^4 cells/well in a 96-well culture plate, and cells in each well were allowed to grow to 60-80% confluence within 24 h prior to drug treatment.
The cell viability was measured using the MTT colorimetric assay, which was based on the conversion of MTT to formazan crystals by mitochondrial dehydrogenase. Briefly, H9c2 cells were seeded in 96-well plates at 1×10^4 cells/well and incubated at 37° C. for 48 h. The cells were then treated with DMSO (H/R control), diazoxide (50 μM). Compounds A-G (at two concentrations of 12.5 μM or 25 μM) and incubated under hypoxia condition. The cells without any treatment and incubated under normoxia condition were used as normal control. At the end of the treatments, […] MTT (5 mg/ml) was added for 4 h and then […] MTT buffer (10% SDS solution, pH7.4) was added to each well. After overnight incubation and 30 s vibration, the absorbance was read at 490 nm wavelength. Results were expressed as the ratio of the number of viable cells with treatments relative to that of the normoxia control. […]
Results were expressed as the ratio of the number of viable cells with treatments relative to that of the positive control.

3-O-[β-D-glucopyranosyl(1→2)-β-D-glucopyranosyl]-3β,12β,20(S),25-tetra-hydroxydammar-23-ene [Compound B]
cytotoxicity under normoxia condition (12.5 μM, vs untreated control): no statistically significant cytotoxicity | cytotoxicity under normoxia condition (25 μM, vs untreated control): no statistically significant cytotoxicity | cytotoxicity under normoxia condition (equivalent dosages): no significant cytotoxicity
